{"sequences": {"note": "By UniProt entry, the sequences of proteins in these tests, tags left out. Where a name states a change or a piece, a line headed by the entry shows the natural chain unless it says otherwise.", "UniProt P22086": "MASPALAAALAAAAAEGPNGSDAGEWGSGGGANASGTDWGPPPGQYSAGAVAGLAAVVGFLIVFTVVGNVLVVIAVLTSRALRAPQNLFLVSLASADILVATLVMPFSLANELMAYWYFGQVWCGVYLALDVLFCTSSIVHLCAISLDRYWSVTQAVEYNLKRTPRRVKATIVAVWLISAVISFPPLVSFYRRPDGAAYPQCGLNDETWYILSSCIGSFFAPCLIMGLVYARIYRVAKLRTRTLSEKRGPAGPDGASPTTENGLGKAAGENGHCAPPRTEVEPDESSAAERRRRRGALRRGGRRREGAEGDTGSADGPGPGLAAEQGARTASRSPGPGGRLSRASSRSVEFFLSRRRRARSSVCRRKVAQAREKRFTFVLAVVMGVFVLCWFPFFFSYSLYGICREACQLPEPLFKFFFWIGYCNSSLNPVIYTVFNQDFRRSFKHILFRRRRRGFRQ", "UniProt P19328": "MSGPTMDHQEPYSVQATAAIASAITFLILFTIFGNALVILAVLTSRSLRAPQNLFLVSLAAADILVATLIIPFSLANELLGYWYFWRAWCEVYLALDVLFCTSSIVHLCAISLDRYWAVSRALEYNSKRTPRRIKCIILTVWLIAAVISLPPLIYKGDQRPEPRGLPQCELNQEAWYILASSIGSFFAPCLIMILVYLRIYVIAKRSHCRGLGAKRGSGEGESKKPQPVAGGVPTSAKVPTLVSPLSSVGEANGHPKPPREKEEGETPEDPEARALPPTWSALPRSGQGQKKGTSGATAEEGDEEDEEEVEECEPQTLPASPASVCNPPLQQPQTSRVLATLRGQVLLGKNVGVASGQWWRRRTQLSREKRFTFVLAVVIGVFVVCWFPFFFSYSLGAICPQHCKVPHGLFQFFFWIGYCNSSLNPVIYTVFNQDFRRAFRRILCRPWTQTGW", "UniProt P22909": "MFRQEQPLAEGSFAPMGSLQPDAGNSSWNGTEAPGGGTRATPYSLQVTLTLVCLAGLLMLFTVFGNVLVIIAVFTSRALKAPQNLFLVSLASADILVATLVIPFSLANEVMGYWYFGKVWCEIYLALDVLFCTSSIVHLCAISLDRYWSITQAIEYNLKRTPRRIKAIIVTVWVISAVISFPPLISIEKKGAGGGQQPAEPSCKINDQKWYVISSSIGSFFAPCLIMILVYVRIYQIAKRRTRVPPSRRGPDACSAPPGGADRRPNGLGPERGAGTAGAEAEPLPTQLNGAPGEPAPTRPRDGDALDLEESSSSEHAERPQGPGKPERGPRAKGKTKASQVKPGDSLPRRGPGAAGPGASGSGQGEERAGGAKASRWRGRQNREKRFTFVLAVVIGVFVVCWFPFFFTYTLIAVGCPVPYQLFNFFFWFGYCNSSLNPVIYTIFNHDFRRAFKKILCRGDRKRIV"}, "source": "ChEMBL document CHEMBL1124042", "about": "“Synthesis and potential antipsychotic activity of 1H-imidazo[1,2-c]pyrazolo[3,4-e]pyrimidines” (J Med Chem, 1988)", "biological_target": "Adrenergic receptor alpha-2 (Rattus norvegicus, UniProt P22086+P19328+P22909)", "assay": "Displacement of [3H]clonidine from alpha-2 adrenergic receptor in rat brain", "assay_type": "tissue-based", "in_short": "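Rat brain radioligand displacement binding. IC50 values (μM) were derived by nonlinear regression from four or five concentrations of compound.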"}
{"smiles": "CSc1ccc2c(c1)N(CCC1CCCCN1C)c1ccccc1S2", "note": "(stereo unspecified) [THIORIDAZINE]", "values": [{"measurement": "IC50", "value": 1300, "unit": "nM"}]}
